Experimental data published in ChEMBL document CHEMBL5150037, “Synthesis and in vitro biological evaluation of 3-ethyl-1,5-naphthyridin-2(1H)-one derivatives as potent PARP-1 selective inhibitors and PARP-1 DNA trappers” (Bioorg Med Chem Lett, 2022).

Protein sequences, listed by entry. Tags and fused reporters are not part of them.
UniProt P09874, whole entry: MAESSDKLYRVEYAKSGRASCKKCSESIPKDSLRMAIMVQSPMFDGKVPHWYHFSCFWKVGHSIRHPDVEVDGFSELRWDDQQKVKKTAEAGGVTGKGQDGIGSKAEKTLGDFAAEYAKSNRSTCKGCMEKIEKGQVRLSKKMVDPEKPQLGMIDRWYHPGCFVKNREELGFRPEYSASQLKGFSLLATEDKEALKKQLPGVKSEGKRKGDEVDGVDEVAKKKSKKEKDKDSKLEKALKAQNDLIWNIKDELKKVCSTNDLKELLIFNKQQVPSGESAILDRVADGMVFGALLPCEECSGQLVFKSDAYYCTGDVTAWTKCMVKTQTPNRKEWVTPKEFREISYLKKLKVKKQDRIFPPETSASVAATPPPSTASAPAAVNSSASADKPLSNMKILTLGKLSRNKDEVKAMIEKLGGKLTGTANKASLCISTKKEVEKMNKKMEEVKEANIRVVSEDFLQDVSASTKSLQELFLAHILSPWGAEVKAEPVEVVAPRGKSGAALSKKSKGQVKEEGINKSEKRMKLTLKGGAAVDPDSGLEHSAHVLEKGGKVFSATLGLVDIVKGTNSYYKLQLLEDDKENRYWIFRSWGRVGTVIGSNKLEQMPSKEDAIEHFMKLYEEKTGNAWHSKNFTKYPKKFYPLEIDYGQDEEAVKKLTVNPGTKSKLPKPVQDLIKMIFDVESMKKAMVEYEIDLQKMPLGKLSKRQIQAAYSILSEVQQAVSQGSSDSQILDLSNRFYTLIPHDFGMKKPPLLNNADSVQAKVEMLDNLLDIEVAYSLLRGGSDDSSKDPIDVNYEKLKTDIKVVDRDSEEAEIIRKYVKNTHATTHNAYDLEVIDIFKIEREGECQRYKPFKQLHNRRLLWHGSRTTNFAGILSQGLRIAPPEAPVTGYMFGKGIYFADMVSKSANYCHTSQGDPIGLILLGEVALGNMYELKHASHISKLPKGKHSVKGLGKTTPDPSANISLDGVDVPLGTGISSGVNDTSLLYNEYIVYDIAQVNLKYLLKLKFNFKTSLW

Target: Poly [ADP-ribose] polymerase 1 (Homo sapiens, UniProt P09874)
Assay: Potency index, ratio of AZD5305 IC50 to test compound IC50 for inhibition of PARP-1 (unknown origin) binding to DNA assessed as DNA trapping activity

Ratio IC50, 7:
CCc1cc2ncc(CN3CCc4cc(/C=C/C(=O)NC)ccc4C3)cc2[nH]c1=O
CCc1cc2ncc(CN3CC(Nc4ccc(C(=O)NC)nc4)C3)cc2[nH]c1=O
CCc1cc2ncc(CN3CCC(Nc4ccc(C(=O)NC)nc4)C3)cc2[nH]c1=O (centres undefined)
CCc1cc2ncc(CN3CC4CN(c5ccc(C(=O)NC)nc5)CC4C3)cc2[nH]c1=O (centres undefined)
